Earlier results as cited in patent US20250333398A1, “MONOARYL AND HETARYL SUBSTITUTED INDAZOLES AND BENZIMIDAZOLES AS STING ANTAGONISTS AND THE USE THEREOF AS MEDICAMENT” (Boehringer Ingelheim International GmbH, priority 2024, published 2025).

Assays:
[1] = tested on: THP1 cells; conditions: read-out: cellular inhibitory activity, cGAMP stimulated INFb production in THP1 cells; cited from earlier work
[2] = tested on: HAQ STING variant; conditions: cited from earlier work

In the case of `COc1nn(C2CC2)cc1-n1cc2c(-c3nc(-c4ccc(C(=O)N(C)C)cc4OC(F)(F)F)n(C)c3C3CC3)cccc2n1` [Example 15, 4-{5-cyclopropyl-4-[2-(1-cyclopropyl-3-methoxy-1H-pyrazol-4-yl)-2H-indazol-4-yl]-1-methyl-1H-imidazol-2-yl}-N,N-dimethyl-3-(trifluoromethoxy)benzamide], the IC50 [1] is given as 11 µM and the IC50 [2] is given as 41 nM.
